We go through 1 compound from EP3771713A1 (dated 2021).

Protein sequences, listed by entry. Tags and fused reporters are not part of them.
UniProt P21554, whole entry: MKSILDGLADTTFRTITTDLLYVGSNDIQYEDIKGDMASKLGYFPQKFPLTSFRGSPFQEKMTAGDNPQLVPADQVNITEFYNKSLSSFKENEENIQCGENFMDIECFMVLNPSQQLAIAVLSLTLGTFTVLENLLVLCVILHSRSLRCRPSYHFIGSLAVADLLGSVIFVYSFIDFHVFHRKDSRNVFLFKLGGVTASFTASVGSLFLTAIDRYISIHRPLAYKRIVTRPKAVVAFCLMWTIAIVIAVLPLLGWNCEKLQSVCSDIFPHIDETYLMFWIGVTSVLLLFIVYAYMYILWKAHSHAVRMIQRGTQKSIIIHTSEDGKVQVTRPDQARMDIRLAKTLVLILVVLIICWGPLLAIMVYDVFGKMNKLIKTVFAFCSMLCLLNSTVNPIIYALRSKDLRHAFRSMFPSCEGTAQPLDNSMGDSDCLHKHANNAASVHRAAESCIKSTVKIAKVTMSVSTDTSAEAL

One may read the Ki as a measure of affinity in units of concentration, obtained from inhibition or displacement.

Like-named read-outs stand apart in the source and are kept apart here.

The target of assay [1] is T1, hCB1R (Homo sapiens, UniProt P21554). As to conditions: read-out: Ki hCB1R (value with reference superscript); cited from earlier work.
The target of assay [2] is T1, hCB1R. In words: biochemical. The format is binding.

For `Cc1ccc(Cn2nc(C(=O)NC3C4(C)CCC(C4)C3(C)C)cc2-c2ccc(Cl)c(C)c2)cc1` (stereo not drawn) [SR-144,528, reference compound], the results for the Ki in assay [1], in assay [2] and in assay [2] (Ki hCB1R) were 264 nM, 794 nM and 687 nM, respectively.
